## Ab-14 heavy chain CDR variants: yeast mating affinities

The measurements come from Engelhart et al. 2022 (doi:10.1038/s41597-022-01779-4) through the FLAb antibody collection.

The target is the same throughout: PDVDLGDISGINAS, from the HR2 region of SARS-CoV-2 spike.

Each scFv is VH, the linker GGGGSGGGGSGGGGS, VL, as in the parent Ab-14, and differs from it in the CDRs of the heavy chain only.
VH: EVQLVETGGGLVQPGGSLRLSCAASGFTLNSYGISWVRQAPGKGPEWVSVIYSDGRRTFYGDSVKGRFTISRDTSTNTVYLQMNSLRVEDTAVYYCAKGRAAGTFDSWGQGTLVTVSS
VL: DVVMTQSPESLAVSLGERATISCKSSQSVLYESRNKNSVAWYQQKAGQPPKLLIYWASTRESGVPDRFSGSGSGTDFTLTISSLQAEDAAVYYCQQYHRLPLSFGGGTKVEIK

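The starting antibody came from a phage panning campaign against this peptide. Library AAYL49 holds single substitutions and randomly drawn double and triple substitutions in the CDRs. Affinity was read by AlphaSeq, a pooled yeast mating assay with surface-displayed partners. Mating (16 h, 30 °C) was followed by selection of diploids and sequencing of their barcodes. Read counts were normalised to the haploid input and turned into Kd by a linear fit to BCL2-family pairs of known affinity, for each replicate. Mating was done three times.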

Each variant's VH is given in full. All variants listed here change D62 of the VH, counted from its first residue. Values are log10 of the apparent Kd in nM; lower means stronger binding. A mean of the replicates is given; it leaves out those without a signal. A pair that was not seen in any replicate is written "not detected"; this usually means weak binding, but a binder can also be missed. Three control strains display no target. For library AAYL49, 15% of the pairings with them gave a signal, with a median of 4.06 and one signal in twenty below 2.83, so weak values seen in few replicates may be background.

| VH | mean log10 Kd (nM) | replicates with signal |
|---|---|---|
| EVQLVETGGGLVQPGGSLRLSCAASGFTLGSYGISWVRQAPGKGPEWVSVIYSDGRRTFRGPSVKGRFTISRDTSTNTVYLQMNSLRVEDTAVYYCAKGRAAGTFDSWGQGTLVTVSS | 4.08 | 1 of 3 |
| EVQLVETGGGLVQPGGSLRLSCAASEFTLNSYGISWVRQAPGKGPEWVSVIYSDGRRTFYGASVKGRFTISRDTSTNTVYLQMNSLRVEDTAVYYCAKGRAAGTFDGWGQGTLVTVSS | not detected | 0 of 3 |
| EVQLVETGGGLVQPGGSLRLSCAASNFTLNSYGQSWVRQAPGKGPEWVSVIYSDGRRTFYGISVKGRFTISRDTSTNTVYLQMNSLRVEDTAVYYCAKGRAAGTFDSWGQGTLVTVSS | 4.31 | 1 of 3 |
| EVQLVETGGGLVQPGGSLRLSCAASGFTLNSYGISWVRQAPGKGPEWVSVMYSDGRRTFYGSSVKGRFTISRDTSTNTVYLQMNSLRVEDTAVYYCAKGRAAGTFDSWGQGTLVTVSS | 3.26 | 3 of 3 |
| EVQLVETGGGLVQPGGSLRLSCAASGFTLNSYGISWVRQAPGKGPEWVSVIYSDTRRQFYGTSVKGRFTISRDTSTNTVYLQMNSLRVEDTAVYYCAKGRAAGTFDSWGQGTLVTVSS | 3.73 | 2 of 3 |
| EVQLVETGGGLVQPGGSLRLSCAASGFTLNSYQISWVRQAPGKGPEWVSVIYSDGRRTFIGKSVKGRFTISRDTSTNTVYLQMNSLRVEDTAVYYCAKGRAAGTFDSWGQGTLVTVSS | not detected | 0 of 3 |
| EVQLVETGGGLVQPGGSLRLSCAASGFTLNSYGISWVRQAPGKGPEWVSVIYSDGRRTFYSGSVCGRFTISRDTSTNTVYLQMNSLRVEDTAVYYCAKGRAAGTFDSWGQGTLVTVSS | 1.79 | 3 of 3 |
| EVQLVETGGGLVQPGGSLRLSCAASGFTLNSTGISWVRQAPGKGPEWVSVIYSDGRRTFYGFSVKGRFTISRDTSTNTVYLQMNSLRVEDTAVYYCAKGRAAGRFDSWGQGTLVTVSS | not detected | 0 of 3 |
| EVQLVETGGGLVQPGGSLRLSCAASGFTLNSYGISWVRQAPGKGPEWVSVIYSDGRHTFYGRSVKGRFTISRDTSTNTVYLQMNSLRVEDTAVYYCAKGRAAGTFDQWGQGTLVTVSS | not detected | 0 of 3 |
| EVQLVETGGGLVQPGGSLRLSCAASGFTLNSYGISWVRQAPGKGPEWVSVIYSDGRRTFYIKKVKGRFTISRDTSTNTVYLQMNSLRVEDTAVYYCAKGRAAGTFDSWGQGTLVTVSS | not detected | 0 of 3 |
| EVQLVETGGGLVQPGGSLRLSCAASGFTLNSYAISWVRQAPGKGPEWVSVIYSDGRRTFYGNSVRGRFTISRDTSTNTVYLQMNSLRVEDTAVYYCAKGRAAGTFDSWGQGTLVTVSS | 2.99 | 1 of 3 |
| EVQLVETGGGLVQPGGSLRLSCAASGFTWNSYGISWVRQAPGKGPEWVSVIYSDGRRTFYGESVKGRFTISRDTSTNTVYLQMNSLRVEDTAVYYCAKGRAAGTFDSWGQGTLVTVSS | 3.88 | 2 of 3 |
| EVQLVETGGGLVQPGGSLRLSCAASGFTLNSYVISWVRQAPGKGPEWVSVIYSDGRRTFYGWSVKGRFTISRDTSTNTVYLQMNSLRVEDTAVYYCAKGRAAGSFDSWGQGTLVTVSS | 4.55 | 2 of 3 |
| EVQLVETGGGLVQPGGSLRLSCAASGFTLNSYGISWVRQAPGKGPEWVSVIYSDGTRTFYGWSVAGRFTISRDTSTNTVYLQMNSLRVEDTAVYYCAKGRAAGTFDSWGQGTLVTVSS | 2.17 | 3 of 3 |
| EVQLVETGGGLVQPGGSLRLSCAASGFTLNSYGYSWVRQAPGKGPEWVSVIYSDDRRTFYGPSVKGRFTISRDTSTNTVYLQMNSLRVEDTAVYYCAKGRAAGTFDSWGQGTLVTVSS | 4.10 | 2 of 3 |
| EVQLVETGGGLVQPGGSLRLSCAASGFTLNSYGISWVRQAPGKGPEWVSVIYSDGRRPFYGVSVKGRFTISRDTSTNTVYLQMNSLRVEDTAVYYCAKGRAAGIFDSWGQGTLVTVSS | not detected | 0 of 3 |
| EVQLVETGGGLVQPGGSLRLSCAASGFTLNSYGISWVRQAPGKGPEWVSVIYSDGRRTLYGLSVKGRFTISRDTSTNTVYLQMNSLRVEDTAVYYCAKGRAAGTLDSWGQGTLVTVSS | not detected | 0 of 3 |
| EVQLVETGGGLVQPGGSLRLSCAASGFTLNSYGISWVRQAPGKGPEWVSVIFSDGRRTFYGVSVKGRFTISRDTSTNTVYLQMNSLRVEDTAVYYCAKGRADGTFDSWGQGTLVTVSS | not detected | 0 of 3 |
| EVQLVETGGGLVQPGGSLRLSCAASGRTLNSYGISWVRQAPGKGPEWVSVDYSDGRRTFYGHSVKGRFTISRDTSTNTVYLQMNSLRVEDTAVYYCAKGRAAGTFDSWGQGTLVTVSS | not detected | 0 of 3 |
| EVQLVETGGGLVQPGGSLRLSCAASGFTLNSYGSGWVRQAPGKGPEWVSVIYSDGRRTFYGYSVKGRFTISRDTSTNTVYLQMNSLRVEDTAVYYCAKGRAAGTFDSWGQGTLVTVSS | 4.56 | 1 of 3 |
| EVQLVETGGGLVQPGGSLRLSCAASVFTLNSYGISWVRQAPGKGPEWVSVIYSDGRRTSYGISVKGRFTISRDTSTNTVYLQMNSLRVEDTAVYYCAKGRAAGTFDSWGQGTLVTVSS | 4.55 | 2 of 3 |
| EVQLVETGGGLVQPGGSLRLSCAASGFTLNSYGISWVRQAPGKGPEWVSVIYSDGRRTFYKISVKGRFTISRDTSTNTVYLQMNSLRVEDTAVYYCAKGRAAGTFDSWGQGTLVTVSS | 2.62 | 1 of 3 |

A selection of 2 entries from above:

VH,mean log10 Kd (nM),replicates with signal
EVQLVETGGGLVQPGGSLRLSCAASGFTLNSYGISWVRQAPGKGPEWVSVIFSDGRRTFYGVSVKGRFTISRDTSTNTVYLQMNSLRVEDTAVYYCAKGRADGTFDSWGQGTLVTVSS,not detected,0 of 3
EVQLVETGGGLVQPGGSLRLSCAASGFTLNSYGISWVRQAPGKGPEWVSVIYSDGRRPFYGVSVKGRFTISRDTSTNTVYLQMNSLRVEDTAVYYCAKGRAAGIFDSWGQGTLVTVSS,not detected,0 of 3

Parent in this assay: reference entry 0.65, copy in this library 4.11 (one replicate of three).